Most compounds without a hit are left out; they make up all but 2.5% or so of the library.
TrxR1 inh = inhibitors of rat thioredoxin reductase 1; O89049; recombinant rTrxR1, NADPH fluorescence consumption, selenite substrate; Potency, µM (highest dose often 114 µM), for inactives: top-dose activity change, negative = inhibition, hits mostly inhibitors; actives 1% (n = 390,000); AID 588453; also: potency is read from the fitted curve at half-maximal effect; % is scaled to controls: 0 for no effect and ±100 for the full control effect; nearly all actives have a fitted effect of over 65% in size
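Rat TrxR1 (90 nM in the dispensed reagent) was pre-reduced with 400 uM NADPH for 5 min at room temperature, then incubated with compound for 15 min. After 400 uM selenite was added, NADPH fluorescence (Ex 340/Em 450 nm) was followed for 8 min.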
TrxR1 substrate = substrates of rat thioredoxin reductase 1 | O89049 | purified TrxR1 substrate turnover, NADPH consumption readout | Potency, µM (titrated, usually from 114 µM), for the others: at the top dose activity change, negative = substrate turnover | actives 0.01% (n = 390,000) | AID 588456; also: potency is read from the fitted curve at half-maximal effect; % is scaled to controls: 0 for no effect and ±100 for the full control effect; nearly all actives have a fitted effect of over 50% in size
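Rat TrxR1, dispensed at 90 nM, was prereduced with 400 uM NADPH (final) for 5 min at ~22 deg C, then incubated with compound 15 min before 400 uM selenite. A first-read NADPH fluorescence drop versus no-compound background flagged substrates.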
Anesthetic bind = binds horse apoferritin like a general anesthetic. P02791. apoferritin/1-aminoanthracene competitive binding, fluorescence. Potency, µM (series often up to 77.5 µM), inactives show at the top dose activity change, negative = displacement, hits mostly inhibitors. actives 0.074% (n = 350,000). AID 485281; also: potency is read from the fitted curve at half-maximal effect; % is scaled to controls: 0 for no effect and ±100 for the full control effect; nearly all actives have a fitted effect of over 20% in size
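10 uM apoferritin + 50% sat. 1-AMA, PBS; cpd 10 min RT; Ex380/Em535 endpoint; normalized to free probe vs complex; 4-param Hill fit; propofol titration as pos. ctrl.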
miR-21 FLuc = miR-21 reporter, rising signal; Potency, µM (titrated, usually from 38.3 µM), without a hit: at the highest dose reporter change, positive = more light; AID 2288; 340,000 tested, under 10 active; HeLa miR-21 FLuc reporter, luciferase, 48 h; active = well fitted rising curve with a large enough effect; inconclusive = small, poorly fitted or top-dose-only effect; inactive = no such curve, though single readings can be large or run the other way;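 note: % of control where 0% means no effect; miR-21 action dims this reporter so a rising signal means less miR-21 action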
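HeLa miR-21-FLuc reporter line, endogenous miR-21; 2000 cells/well in DMEM/10% FBS; compound titration up to ~40uM final, 48 h, 37 degree Celsius; luciferase detection reagent, 15 min lysis, CCD luminescence.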
ClpP mod = qHTS Assay for Activators of ClpP. AID 651965, 2013. purified B. subtilis ClpP, FRET peptide cleavage, 20 min. actives 1.9% (n = 340,000). Potency, µM (doses to about 57.5 µM), for inactives: at the top dose activity change, negative = active. ATP-dependent Clp protease proteolytic subunit (Bacillus subtilis (strain 168)), P80244; active = well fitted falling curve with a large enough effect; inconclusive = small, poorly fitted or top-dose-only effect; inactive = no such curve, though single readings can be large or run the other way; also: potency is read from the fitted curve at half-maximal effect; the source files actives as falling curves though it sought activators and does not explain the sign; nearly all actives have a fitted effect of over 65% in size
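ClpP 10 microg/mL final, pH 8 Tris/KCl buffer with BSA, glycerol, Tween-20; compound pinned in; FRET-FV substrate; RT 20 min; Ex320/Em430; ΔFRET vs ADEP 5.8 microM, DMSO, no enzyme.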
An asterisk follows results filed as active; ? = inconclusive; . = not tested or not shown; [ ] = another dose, or the depositor's remark. Unless noted, calls follow the shape of the dose curve; as a rule, active = well fitted curve in the direction sought with a large enough effect; inconclusive = small, poorly fitted or top-dose-only effect, or another doubt; inactive = no such curve, though single readings can be large; an effect the other way counts as inactive or inconclusive.

Chains of the proteins cited; added tags and fusions are not shown.
ATP-dependent Clp protease proteolytic subunit (Bacillus subtilis (strain 168)), P80244, UniProt P80244, whole entry, looked up: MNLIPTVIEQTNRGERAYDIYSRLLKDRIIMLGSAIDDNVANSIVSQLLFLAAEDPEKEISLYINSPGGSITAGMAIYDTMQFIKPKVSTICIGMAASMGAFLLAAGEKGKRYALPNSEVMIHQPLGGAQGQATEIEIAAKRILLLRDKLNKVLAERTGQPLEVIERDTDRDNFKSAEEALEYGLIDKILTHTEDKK

compound | TrxR1 inh | TrxR1 substrate | Anesthetic bind | miR-21 FLuc | ClpP mod
CC(C)(C)OC(=O)N1CCC(c2c(C(=O)N3CCN(c4ccccc4F)CC3)cnn2-c2ccccc2Cl)CC1 | 4.8% | -7.9% | 7.5% | -6.1% | 0.9%
Cc1ccc(CCNC(=O)CCSCc2ccccc2Cl)cc1 | 8.0%[57.1 µM] | 1.7%[57.1 µM] | ? | -2.1% | -1.5%
COC(=O)c1c(-c2ccc(Cl)cc2)noc1N1CCN(c2cccc(OC)c2)CC1 | 35.2%[57.1 µM] | 1.1%[57.1 µM] | 5.1% | 3.7% | -9.0%
CCN(CC)C(=O)CSc1nc(-c2cccs2)cc(-c2cccs2)c1C#N | -11.5% | 39.0% | -7.1% | 2.0% | 25.1µM*
C#CCSc1nc(-c2cccs2)ccc1C#N | 11.3%[57.1 µM] | 20.7%[57.1 µM] | -4.5% | -1.8% | 31.6µM*
COC(=O)CSc1nc(-c2cccs2)ccc1C#N | ? | 112.9% | ? | -55.7% | 6.31µM*
O=S(=O)(Nc1ccc2c(c1)CCC2)c1cccs1 | 8.8% | -5.0% | 11.2µM* | -24.0% | -2.1%
COc1cc(N2C(=O)C=CC2=O)c(OC)cc1Cl | 3.16µM* | -1.6% | 1.6% | ? | .
O=C1CC(c2cc3c(cc2Br)OCO3)C2=C(CCCC2=O)N1 (configuration not stated) | 4.9% | 5.6% | -8.9% | 0.3% | 25.1µM*
COCCNC(=O)CCCn1c(SCc2ccccc2C)nc2c(sc3ccccc32)c1=O | 20.8% | 9.4% | 15.8% | 15.7% | -14.9%
O=[N+]([O-])C(/C=C(/Cl)[N+](=O)[O-])=C(N1CCCCC1)N1CCCCC1 | 7.94µM* | -9.6%[57.1 µM] | -2.6% | 3.1% | .
O=C(/C=C/c1ccccc1[N+](=O)[O-])N1CCCCC1 | 6.6% | -2.0% | -11.0% | -31.1% | 1.0%
CCOC(=O)c1ccc(NC(=O)CCc2nc3cccnc3n2Cc2cccs2)cc1 | 6.5% | -5.2% | 9.0% | -6.5% | -7.8%
COc1ccccc1COc1ccc2c(C)c(CCC(=O)O)c(=O)oc2c1C | 8.8%[57.1 µM] | 25.4%[57.1 µM] | 6.5% | 0.4% | -1.6%
O=C(O)CCc1c2ccc(=O)c(O)c-2oc2c(O)c(O)ccc12 | 56.2µM* | -4.7% | . | . | -11.4%
O=C(CSc1ccc(Cl)cc1)Nc1ccc(-c2nc3ccccc3[nH]2)cc1 | 13.9% | 24.8% | 4.3% | -11.1% | 25.1µM*
c1ccc(-c2nc3ccccc3[nH]2)cc1 | 7.3% | 30.8% | -14.9% | -46.2% | 4.1%
COC(=O)c1ccc(C(=O)Nc2ccc3nc(-c4ccncc4)[nH]c3c2)cc1 | 19.2% | 0.0% | 1.3% | 7.4% | 0.6%
COc1ccc(-c2nc3ccccc3[nH]2)cc1 | 20.5% | 29.9% | -13.8% | 10.6% | 25.1µM*
COC(=O)c1ccc(-c2nc3ccccc3[nH]2)cc1 | 56.2µM* | 926.2% | -13.7% | -10.9% | 57.1%
CSc1nnc(-c2sc3cc(C(F)(F)F)cnc3c2-c2ccccn2)n1C | 8.5%[57.1 µM] | 40.2% | -4.1% | 0.5% | 28.2µM*
COc1ccc(Br)cc1C(=O)Nc1ccccc1N1CCN(C(=O)c2ccccc2)CC1 | 53.5%[57.1 µM] | 24.1%[57.1 µM] | -13.6% | 17.6% | .
COc1c(C)cc(Br)cc1C(=O)Nc1ccccc1N1CCN(C(=O)c2ccccc2)CC1 | 12.5%[57.1 µM] | 5.2%[57.1 µM] | -5.0% | 0.5% | 17.8µM*
COc1ccc(-c2nc(CCNC(=O)c3ccccc3)cs2)cc1OC | -1.2%[57.1 µM] | 2.2%[57.1 µM] | -6.1% | 11.8% | 25.1µM*
COc1cccc(-c2nc(CCl)cs2)c1OC | -9.8%[57.1 µM] | 17.7%[57.1 µM] | -2.0% | -30.4% | -3.5%
CCCCOc1ccc(S(=O)(=O)NCc2csc(-c3ccc(OC)cc3)n2)cc1 | -5.6% | -5.1% | -3.3% | 0.9% | 12.6µM*
COc1cccc(-c2nc(CC(=O)O)cs2)c1OC | 20.2% | 24.3% | -4.5% | -9.7% | 12.6µM*
COc1ccc(-c2nc(CNS(=O)(=O)c3ccccc3)cs2)cc1 | 6.3% | -0.7% | -11.9% | 5.3% | -6.7%
COc1ccc(-c2nc(CC(=O)O)cs2)cc1 | 12.8%[57.1 µM] | 16.7% | -8.9% | -3.1% | 22.4µM*
CCc1cccc(NC(=O)c2cc3c(=O)n(Cc4ccc(OC)cc4)ccc3nc2C)c1 | 10.2%[57.1 µM] | 2.6%[57.1 µM] | ? | 14.4% | -10.2%

As a working copy, four of the compounds above:
compound | TrxR1 inh | TrxR1 substrate | Anesthetic bind | miR-21 FLuc | ClpP mod
COc1cccc(-c2nc(CC(=O)O)cs2)c1OC | 20.2% | 24.3% | -4.5% | -9.7% | 12.6µM*
COc1ccc(-c2nc(CNS(=O)(=O)c3ccccc3)cs2)cc1 | 6.3% | -0.7% | -11.9% | 5.3% | -6.7%
COc1ccc(-c2nc(CC(=O)O)cs2)cc1 | 12.8%[57.1 µM] | 16.7% | -8.9% | -3.1% | 22.4µM*
CCc1cccc(NC(=O)c2cc3c(=O)n(Cc4ccc(OC)cc4)ccc3nc2C)c1 | 10.2%[57.1 µM] | 2.6%[57.1 µM] | ? | 14.4% | -10.2%

Later entries:
compound | TrxR1 inh | TrxR1 substrate | Anesthetic bind | miR-21 FLuc | ClpP mod
COc1cccc(CNC(=O)CN2C(=O)N(c3c(C)cccc3C)S(=O)(=O)c3ccccc32)c1OC | 17.8%[57.1 µM] | -1.5%[57.1 µM] | 4.2% | 25.4% | -2.1%
Fc1ccc(-n2cc(CNCCc3ccncc3)c(-c3ccccc3Cl)n2)cc1 | 15.7% | 5.1% | -7.0% | 5.0% | 0.1%
Fc1ccc(-n2cc(CNCCc3cccnc3)c(-c3ccccc3Cl)n2)cc1 | -8.0%[57.1 µM] | 5.7%[57.1 µM] | -4.7% | -1.1% | 28.2µM*
CCn1cc(C(=O)NCCc2ccc(Cl)cc2)c(=O)c2cc(S(=O)(=O)N3CCOCC3)ccc21 | 24.0% | 3.5% | -3.4% | -8.0% | -3.4%
COc1ccc(N2CCN(C(c3ccccc3)c3nnnn3C(C)(C)C)CC2)cc1 (configuration not stated) | . | . | . | . | -6.7%
COc1ccc(C(c2nnnn2C(C)(C)C)N2CCN(c3nc4ccccc4s3)CC2)cc1 (configuration not stated) | 2.2%[57.1 µM] | 3.5%[57.1 µM] | 0.1% | 8.3% | 25.1µM*
CCOC(=O)C1=NNC2(CC(=O)N(c3cc(C)cc(C)c3)C2=O)C1 (configuration not stated) | 10.9% | -2.4% | -3.9% | 1.1% | .
CCOC(=O)C1=NN(N=O)C2(CC(=O)N(c3cc(C)cc(C)c3)C2=O)C1 (configuration not stated) | 15.8µM* | 3.4%[57.1 µM] | -21.5% | -4.9% | 1.1%
COc1ccccc1NC(=O)COC(=O)Cc1cccs1 | 20.6%[57.1 µM] | 7.1%[57.1 µM] | -11.7% | -2.8% | .
Cc1cccc(NC(=O)COC(=O)Cc2cccs2)c1C | -9.8% | -8.4% | . | . | 25.1µM*
C=CCNc1oc(-c2cccc(F)c2)nc1C#N | 7.08µM* | -0.9% | . | . | .
Cn1c(=O)c2c(c3ccccc31)OC(=O)CC2c1cccc(Cl)c1 (configuration not stated) | 23.7%[57.1 µM] | 22.9%[57.1 µM] | 38.0% | 27.8% | 11.2µM*
Cn1c(=O)c2c(c3ccccc31)OC(=O)CC2c1cccnc1 (configuration not stated) | 18.8% | 6.3% | -3.9% | -0.8% | -14.9%
CCOC(=O)/C(C)=N/Nc1nc(-c2ccc(NC(C)=O)cc2)cs1 | 56.2µM* | -14.8% | -6.0% | 15.1% | .
Cc1ccc2c(Sc3ccc(Cl)cc3)c(C(=O)N3CCC(C)CC3)[nH]c2c1 | 5.6% | 0.4% | 46.5% | 13.4% | -3.9%
COc1ccc2c(c1)CCc1c(C(=O)Nc3c(C)nn(Cc4ccc(C)cc4)c3C)noc1-2 | -5.3% | 0.9% | 12.2% | ? | 2.2%
COc1ccc2c(-c3ccccc3)cc(N3CCOCC3)nc2c1 | 29.6% | 63.3% | 41.9% | -4.1% | 31.6µM*
O=c1[nH]nc(-c2ccc([N+](=O)[O-])o2)c(=O)[nH]1 | 12.6µM* | -5.2% | . | . | .
Cc1cc(C)c(S(=O)(=O)NCCc2cc3ccc(C)cc3[nH]c2=O)c(C)c1 | 2.0% | -6.4% | -5.1% | -4.2% | ?

Screens deposited in PubChem by National Center for Advancing Translational Sciences (NCATS).
